Measured values taken from patent US9670250B2, “Alpha-helical peptidomimetic inhibitors and methods using same” (The Trustees of the University of Pennsylvania, priority 2012, dated 2017).

Tests used:
Calpain (Calpain-1) = target: T1, Calpain (Calpain-1) (Homo sapiens, UniProt P07384); experiment: in vitro fluorescence-based protease inhibition assay, calpain; format: biochemical; conditions: Table 4, calpain inhibitors
T1 sequence (P07384 1-714): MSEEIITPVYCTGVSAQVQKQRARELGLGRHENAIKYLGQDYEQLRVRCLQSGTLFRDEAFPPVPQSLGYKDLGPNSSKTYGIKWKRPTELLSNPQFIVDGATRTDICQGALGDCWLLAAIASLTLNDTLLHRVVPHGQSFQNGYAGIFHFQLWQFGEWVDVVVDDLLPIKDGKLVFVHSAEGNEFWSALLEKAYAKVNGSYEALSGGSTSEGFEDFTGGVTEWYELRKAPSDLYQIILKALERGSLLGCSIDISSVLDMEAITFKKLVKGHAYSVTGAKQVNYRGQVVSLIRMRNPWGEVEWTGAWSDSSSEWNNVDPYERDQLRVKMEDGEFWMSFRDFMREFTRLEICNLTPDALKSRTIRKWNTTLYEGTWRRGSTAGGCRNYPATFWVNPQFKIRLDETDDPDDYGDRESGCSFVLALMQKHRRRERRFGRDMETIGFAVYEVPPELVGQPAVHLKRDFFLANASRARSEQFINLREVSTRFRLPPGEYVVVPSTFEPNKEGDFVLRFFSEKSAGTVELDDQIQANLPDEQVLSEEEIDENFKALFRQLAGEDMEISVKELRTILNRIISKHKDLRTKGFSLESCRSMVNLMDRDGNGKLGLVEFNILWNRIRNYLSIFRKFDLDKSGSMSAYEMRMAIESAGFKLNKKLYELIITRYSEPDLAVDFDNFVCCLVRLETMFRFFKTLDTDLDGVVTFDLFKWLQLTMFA
T1 sequence (P04632 1-268 partner): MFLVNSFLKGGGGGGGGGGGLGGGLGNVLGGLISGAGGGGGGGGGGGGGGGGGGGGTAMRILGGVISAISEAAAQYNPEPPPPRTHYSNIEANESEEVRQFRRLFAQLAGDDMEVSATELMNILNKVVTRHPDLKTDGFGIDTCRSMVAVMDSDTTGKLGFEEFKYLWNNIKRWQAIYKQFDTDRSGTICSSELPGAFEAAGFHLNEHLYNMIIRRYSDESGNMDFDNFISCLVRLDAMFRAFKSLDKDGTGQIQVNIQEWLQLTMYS
From the text: (§1) Thus, the present invention includes a series of potent and highly specific α-helical inhibitors for papain family cysteine proteases. […] These short α-helical peptidomimetic inhibitors are modeled after the natural pro-domain sequence but contain a cysteine substitution at specific residues in i,i+4 positions, as shown in FIG. 2B. These cysteine residues are used for stabilization of the helix utilizing an appropriate linker (Muppidi, et al., 2011, Chem Commun (Camb) 47:9396-9398). After synthesis, each inhibitor was tested against its respective protease using an in vitro fluorescence-based assay. For each enzyme, at least one inhibitor was identified that is relatively potent and highly specific for its individual protease. These inhibitors can be modified or otherwise optimized to attain higher potency and selectivity through identification of key interactions between the inhibitor and the active site amino acid residues. Such optimization involves visual examination of the protease crystal structure, and substitution with either non-natural or natural amino acids to exploit possible crucial non-covalent protein ligand interactions, such as hydrogen bond, electrostatic, hydrophobic, and Van der Waals interactions.

Cathepsin K = target: T2, Cathepsin K (Homo sapiens, UniProt P43235); experiment: in vitro fluorescence-based protease inhibition assay, cathepsin K; format: biochemical; conditions: Table 4, calpain inhibitors
T2 sequence (P43235 115-329): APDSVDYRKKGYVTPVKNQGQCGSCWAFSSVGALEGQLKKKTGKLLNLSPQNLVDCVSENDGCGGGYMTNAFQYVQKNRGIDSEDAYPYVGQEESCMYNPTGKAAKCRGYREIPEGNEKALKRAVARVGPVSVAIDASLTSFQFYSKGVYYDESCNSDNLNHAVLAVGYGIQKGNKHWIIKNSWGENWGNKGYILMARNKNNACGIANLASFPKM
From the text: as §1

`CC[C@H](C)[C@H](NC(=O)[C@H](C)NC(=O)CCN)C(=O)N1CCC[C@H]1C(=O)N1CCC[C@H]1C(=O)N[C@@H](CCCCN)C(=O)N[C@@H](Cc1ccc(O)cc1)C(=O)N[C@H]1CSCc2cccc(c2)CSC[C@@H](C(=O)O)NC(=O)[C@H](CC(C)C)NC(=O)[C@H](CC(C)C)NC(=O)[C@H](CCC(=O)O)NC1=O` [compound 70] was tested, and the Ki (Calpain (Calpain-1)) was 10.7 ± 3.5 µM and the Ki (Cathepsin K) was > 100 µM.
